The text below walks through data of patent US8563565B2, “Pyrazoloquinoline derivatives” (Eisai R&D Management Co., Ltd., priority 2011, dated 2013).

The chains behind the UniProt entries cited, without tags or fusion partners.
UniProt O76083, whole entry: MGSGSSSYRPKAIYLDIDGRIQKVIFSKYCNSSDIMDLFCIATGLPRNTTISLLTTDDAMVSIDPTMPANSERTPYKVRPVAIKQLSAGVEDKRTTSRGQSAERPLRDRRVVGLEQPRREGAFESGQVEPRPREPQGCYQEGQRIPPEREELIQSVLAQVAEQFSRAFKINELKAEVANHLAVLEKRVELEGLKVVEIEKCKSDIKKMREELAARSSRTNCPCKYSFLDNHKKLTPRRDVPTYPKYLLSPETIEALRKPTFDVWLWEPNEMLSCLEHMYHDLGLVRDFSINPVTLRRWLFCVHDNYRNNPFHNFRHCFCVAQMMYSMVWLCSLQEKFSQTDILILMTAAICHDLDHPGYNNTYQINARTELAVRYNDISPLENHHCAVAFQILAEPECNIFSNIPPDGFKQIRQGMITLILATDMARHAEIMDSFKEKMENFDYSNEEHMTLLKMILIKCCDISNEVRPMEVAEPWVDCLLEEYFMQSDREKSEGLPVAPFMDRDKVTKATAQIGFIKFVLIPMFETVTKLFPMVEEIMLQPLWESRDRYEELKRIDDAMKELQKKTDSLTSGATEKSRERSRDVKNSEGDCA

The structures appear in SMILES notation. pIC50: −log10 of the molar value.

The test concerns the target human recombinant PDE9 protein (Homo sapiens, UniProt O76083). The experiment in a line: PDE9 inhibitory activity test (measurement of PDE9 inhibitory action, [3H]-cGMP). The format is biochemical. Particulars: read-out: PDE9 IC50; human recombinant PDE9, 30° C., 10 min.

One may read the pIC50 as −log10 of the IC50, conventionally taken in molar units. Regarding `COc1cc(C)c(-c2ccc3c(c2)[nH]c(=O)c2cnn(C4CCOC4)c23)c(CF)n1` (single isomer, unassigned), the pIC50 is 7.15.
With `Cc1cccc(C)c1-c1ccc2c(c1)[nH]c(=O)c1cnn(C3CCOC3)c12` (single isomer, unassigned) the figure was 7.55.
